Common to all, as to assay type: functional
The test system of test [1] is PC-3. Kind of test: Increase in nonsmall cell lung cancer related gene expression in human PC3 cells at 10 uM incubated for 8 hrs by Affymetrix human exon array relative to untreated control.
Test [2] deals with PC-3. Briefly: Increase in pancreatic cancer related gene expression in human PC3 cells at 10 uM incubated for 8 hrs by Affymetrix human exon array relative to untreated control.
In test [3] the test system is PNT1A. Kind of test: Increase in melanogenesis related gene expression in human PNT1A cells at 10 uM incubated for 8 hrs by Affymetrix human exon array relative to untreated control.
For test [4], the system named is PNT1A. Kind of test: Increase in colorectal cancer related gene expression in human PNT1A cells at 10 uM incubated for 8 hrs by Affymetrix human exon array relative to untreated control.
Test [5] deals with PNT1A. Kind of test: Increase in cytokine-cytokine receptor interaction related gene expression in human PNT1A cells at 10 uM incubated for 8 hrs by Affymetrix human exon array relative to untreated control.

For `S=C=NCCc1ccccn1`, the “fold change (FC)” value in the test with PC-3 [1] came to 1.7; with PC-3 [2], 2.2; with PNT1A [3], 2.2; with PNT1A [4], 2.2; in the test with PNT1A [5], 1.7.

Source of the values: ChEMBL document CHEMBL2177083, “Enhanced in vitro biological activity of synthetic 2-(2-pyridyl) ethyl isothiocyanate compared to natural 4-(methylsulfinyl) butyl isothiocyanate” (J Med Chem, 2012).
